Data from PubChem BioAssay AID1645886 (National Center for Advancing Translational Sciences (NCATS), 2021).
This is a selection; strong and weak results do not stand in their true shares. Some results for these compounds are left out of this collection, so the calls shown say nothing about other tests. Records with an inconclusive call do not appear. Active and inactive are the calls of the source. The call rests on the fitted dose curve; in most records, active means well fitted inhibition curve with a large enough effect; inconclusive means small, poorly fitted or top-dose-only effect; inactive means no such curve, though single readings can be large or run the other way.

The chains behind the UniProt entries cited, without tags or fusion partners.
UniProt Q8WZA2, whole entry: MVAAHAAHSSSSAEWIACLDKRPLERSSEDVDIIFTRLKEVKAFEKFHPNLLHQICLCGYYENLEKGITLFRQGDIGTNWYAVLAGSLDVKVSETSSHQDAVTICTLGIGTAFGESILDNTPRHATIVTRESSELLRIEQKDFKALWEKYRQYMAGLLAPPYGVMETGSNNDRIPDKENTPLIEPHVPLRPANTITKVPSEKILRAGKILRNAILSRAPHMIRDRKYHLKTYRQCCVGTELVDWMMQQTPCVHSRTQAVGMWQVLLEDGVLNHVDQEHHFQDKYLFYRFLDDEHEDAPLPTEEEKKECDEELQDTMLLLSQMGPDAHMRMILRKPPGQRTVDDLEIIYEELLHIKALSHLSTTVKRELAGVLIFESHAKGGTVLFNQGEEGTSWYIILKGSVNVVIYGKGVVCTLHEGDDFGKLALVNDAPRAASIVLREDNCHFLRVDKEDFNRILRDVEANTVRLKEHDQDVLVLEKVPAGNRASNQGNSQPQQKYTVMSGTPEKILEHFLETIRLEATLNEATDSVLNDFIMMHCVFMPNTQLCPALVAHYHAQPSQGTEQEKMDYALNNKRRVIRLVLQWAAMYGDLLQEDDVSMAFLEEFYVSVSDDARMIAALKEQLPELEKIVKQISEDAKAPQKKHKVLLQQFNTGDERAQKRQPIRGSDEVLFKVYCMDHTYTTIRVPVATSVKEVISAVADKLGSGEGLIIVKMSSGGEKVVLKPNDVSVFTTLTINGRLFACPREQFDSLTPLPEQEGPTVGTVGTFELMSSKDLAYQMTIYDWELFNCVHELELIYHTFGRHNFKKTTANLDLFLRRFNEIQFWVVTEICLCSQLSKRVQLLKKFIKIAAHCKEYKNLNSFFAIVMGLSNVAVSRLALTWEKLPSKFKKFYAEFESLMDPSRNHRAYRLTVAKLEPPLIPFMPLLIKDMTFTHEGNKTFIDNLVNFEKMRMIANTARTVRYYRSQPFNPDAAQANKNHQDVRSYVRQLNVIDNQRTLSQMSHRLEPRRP

biological target: Rap guanine nucleotide exchange factor 4 (Homo sapiens) (UniProt Q8WZA2); assay: Validation qHTS for antagonist of cAMP-regulated guanine nucleotide exchange factor 4 (EPAC2); details: EPAC2 Rap1B BODIPY-GDP exchange, fluorescence; at 112 µM (top of the series);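 further: 100% = activation by cAMP agonist control; nearly all actives have a fitted effect of over 40% in size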
From the text: Principle Investigator: Xiaodong Cheng Ph.D. The University of Texas Medical Branch, […], TX MLPCN Grant: NS066510 In multi-cellular eukaryotic organisms, the effects of cAMP are transduced by two ubiquitously-expressed intracellular cAMP receptors, the classic protein kinase A/cAMP-dependent protein kinase (PKA/cAPK) and the more recently discovered exchange protein directly activated by cAMP/cAMP-regulated guanine nucleotide exchange factor (EPAC/cAMP-GEF). Both PKA and EPAC are ubiquitously expressed in all tissues, and an increase in intracellular cAMP levels will lead to the activation of both PKA and EPAC. […] This qHTS will be used to screen the Molecular Libraries Small Molecule Repository (MLSMR) as a concentration-titration series using the NCGC unique quantitative screening (qHTS) platform to find activators for EPAC1. […] Activators are identified by monitoring the change in fluorescence signal as the exchanged free BODIPY-GDP has a reduced fluorescence compared to Rap1-bound BODIPY-GDP. […]
Briefly, three uL of reagents (100 nM EPAC2, 250 nM RAP1B-BODIPY-GDP, 50 uM GDP) were dispensed into a 1536-well Greiner black solid-bottom medium binding assay plate. […] The assay plates were read at 5 minute intervals for 30 minutes in the ViewLux plate reader using 480nm excitation and 540nm emission filters. […]

Structure (SMILES) | activity, negative = inhibition
CN1CCCC(OC(=O)C(O)(c2ccccc2)c2ccccc2)C1 (stereo unspecified) | inactive: 4.32%
